Apparent affinities of Ab-95 variants for a coronavirus HR2 peptide

Values reported by Engelhart et al. 2022, doi:10.1038/s41597-022-01779-4 (FLAb copy).

Binding partner: SARS-CoV-2 spike HR2 peptide, sequence PDVDLGDISGINAS.

Each scFv is VH, the linker GGGGSGGGGSGGGGS, VL, as in the parent Ab-95, and differs from it in the CDRs of the light chain only.
VH: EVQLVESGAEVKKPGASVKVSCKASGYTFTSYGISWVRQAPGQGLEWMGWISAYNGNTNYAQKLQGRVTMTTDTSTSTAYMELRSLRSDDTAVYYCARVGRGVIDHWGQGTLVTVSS
VL: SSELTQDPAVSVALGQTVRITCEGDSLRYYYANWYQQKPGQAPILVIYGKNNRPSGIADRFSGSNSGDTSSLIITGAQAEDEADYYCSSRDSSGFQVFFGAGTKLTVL

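The starting antibody came from a phage panning campaign against this peptide. Variants in AAYL52 differ from the parent at up to three CDR positions; double and triple changes were sampled at random. The scFvs were displayed on barcoded MATa yeast, the peptide on MATalpha yeast. The frequency of each diploid, read from paired DNA barcodes, reflects how well the two displayed proteins bind. Each replicate has its own calibration line, from reference interactions of the BCL2 family. There are three technical replicates.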

Changes read parent residue, position, new residue, counted from the first residue of the VL shown.
Numbers give log10(Kd / nM), so 0 is 1 nM and 3 is 1 µM. Smaller is tighter.
A pair that was not seen in that replicate is written "nd"; this usually means weak binding, but a binder can also be missed.

changes | replicates, log10 nM
R28F+A32M+N51V | 3.93 3.65 nd
Y30T+R90D | 1.61 1.72 0.94
G24V+A32G | nd 4.13 3.91
K50L+S89M+G94C | 5.29 5.41 nd
A32Y+G94D+F98C | nd nd nd
R28Y+S55D+S93P | 3.26 2.31 1.86
R28T+P54C | 2.49 3.16 2.59
D25V+P54C+S89F | 3.08 nd nd
G24S+L27N+R53G | 3.85 nd nd
G24M+S88R+F95Y | nd nd nd
Y30W+G49L+S88E | 4.03 nd nd
Y31E+K50F+R53V | nd 3.10 nd
G94P+F95C | 3.78 3.44 3.58
N52C+S88P+G94N | nd nd nd
N52D+S89W+Q96C | 2.34 2.51 2.53
D25R+N51T+V97T | 3.93 nd nd
N52T+S55W+V97M | nd 4.63 nd
Y30F+D91F+S92C | 4.18 5.24 4.64
A32G+R53Q+S92L | 5.55 nd nd
E23Y+N33L+F95A | 4.34 4.44 nd
D91N+S92T+V97T | nd 5.32 nd
P54N+D91G+F98T | 2.99 4.04 nd
G24F+R53K+F95W | 3.63 2.53 3.99
N33I+D91F+G94M | 3.22 3.29 nd
N33I+D91L+G94T | 3.35 nd nd
L27N+Y30R+N52F | nd 2.44 nd
R53Y+S55D+D91R | 3.27 4.13 3.30
Y29M+P54N+F95S | nd nd 2.83
N51W+S88C | 3.65 nd nd
A32H+G49N+D91C | 3.45 3.81 3.16
Y30D+Y31A+R53E | 2.78 2.77 3.42
N52L+S88N+R90L | 2.74 2.74 2.64
Y30E+N51V+S92P | 2.49 2.47 2.05
L27R+N33P+G94Y | 4.48 3.49 nd
Y31V+N33E+F95M | 3.36 5.05 nd
D25Q+G94P | 5.48 nd 3.41
G49I+K50P+P54N | 3.74 nd nd
D25R+S89M+S92T | 3.59 4.00 2.16

The first 3 variants above that were never detected:

changes | replicates, log10 nM
A32Y+G94D+F98C | nd nd nd
G24M+S88R+F95Y | nd nd nd
N52C+S88P+G94N | nd nd nd

In this assay the parent's reference entry averaged 2.31; its copy inside this library read 2.25.
Empty control strains, which show no peptide, gave a signal in 28% of pairings with library AAYL52; the median was 3.91 and 95% of these signals were weaker than 2.90. No background was subtracted.